Results on two compounds are retold here after US6057371A, “Sigma receptor ligands and the use thereof” (Virginia Commonwealth University, priority 1992, dated 2000).

Chains of the proteins cited; added tags and fusions are not shown.
UniProt P19327, whole entry: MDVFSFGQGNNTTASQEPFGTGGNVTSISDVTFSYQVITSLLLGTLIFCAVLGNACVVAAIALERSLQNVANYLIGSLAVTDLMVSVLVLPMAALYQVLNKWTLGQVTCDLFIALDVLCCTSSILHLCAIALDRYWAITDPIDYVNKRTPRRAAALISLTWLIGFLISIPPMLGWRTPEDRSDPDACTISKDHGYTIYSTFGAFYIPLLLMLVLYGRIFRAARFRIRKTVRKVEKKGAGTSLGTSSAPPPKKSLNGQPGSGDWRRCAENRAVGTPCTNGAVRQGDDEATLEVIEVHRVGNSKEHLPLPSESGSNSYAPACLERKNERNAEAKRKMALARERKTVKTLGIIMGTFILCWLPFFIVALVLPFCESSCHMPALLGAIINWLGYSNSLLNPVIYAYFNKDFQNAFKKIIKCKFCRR

The target of one assay is sigma receptor. Kind of assay: Sigma receptor binding, [^3 H]DTG, brain membranes (both sigma-1 and sigma-2 sites). Also noted: species or system guinea pig. The following applies: Table 6. How it is done:
Sigma receptor binding assays using guinea pig brain membrane homogenates and the radioligand [^3 H]DTG were conducted as described by Weber et al.. […] Briefly, frozen whole guinea-pig brains (Biotrol, Indianapolis, Ind.) were homogenized in 10 volumes (w/v) of ice-cold 320 mM sucrose using a Brinkman polytron. The homogenate was centrifuged at 1,000× g for 20 minutes at 4° C. The supernatant was centrifuged at 20,000× g for 20 minutes at 4° C. The resulting pellet was resuspended in 10 initial volumes of 50 mM Tris/HCl buffer at pH 7.4 and centrifuged at 20,000× g for 20 minutes at 4° C. The resulting pellet was resuspended in 5 initial volumes ice-cold 50 mM Tris/Hcl […], and the final volume was adjusted to yield a protein concentration of 3 mg/ml. […]
The protein concentration in the 1-ml final incubation volume was 800 ug/ml, corresponding to 32 mg of brain tissue (original wet weight) and to a tissue concentration within the linear range for specific binding. […] Each filter was suspended in 10 ml Cytoscint (ICI), and radioactivity was measured by liquid scintillation spectrometry at a counting efficiency of approximately 50%. IC50 values were determined by non-linear regression analyis. […]
Radioligand Binding. […] Radioactivity was measured by liquid scintillation spectrometry at a counting efficiency of 50%.

The next assay concerns the target 5-HT1A receptor (Rattus norvegicus, UniProt P19327). It is filed as binding. On the set-up: 47: 529-540 (1986); from tissue; host or cells: brain tissue, inferred from the cited method (rat frontal cortex). The following applies: Table 5. The method, then: Further sigma receptor binding assays against [^3 H]DTG and 5HT-1A binding assays were conducted according to the procedure outlined in the previous examples.

Broadly, the IC50 is the concentration that inhibits the measured activity by half. A higher IC50 goes with a need for much substance.

The compound `CCN(CC)CCOC(=O)C(O)(c1ccccc1)c1ccccc1` [Compound 185] registered an IC50 on sigma receptor of 1740 nM.

Turning to `CN[C@H](C)Cc1ccccc1` [Compound 3], the “Ratio 5-HT1A /σ” value on 5-HT1A receptor is given as “.20”.
